Data from BindingDB's records for 21208801.

Experiments:
Carbonic anhydrase [1] = target: Carbonic anhydrase (Stylophora pistillata, UniProt B5SU02); assay: Inhibition of Stylophora pistillata carbonic anhydrase by stopped-flow CO2 hydration assay
Carbonic anhydrase [2] = target: Carbonic anhydrase (Stylophora pistillata, UniProt C0IX24)

[N-]=[N+]=N
Ki (Carbonic anhydrase [1]): 520 µM
Ki (Carbonic anhydrase [2]): 4680 µM
